{
  "source": "patent US20210087291A1",
  "about": "(Hoffmann-La Roche, published 2021)",
  "binders": {"B1": {"name": "Farletuzumab (antibody, V domains shown)", "VH": "EVQLVESGGGVVQPGRSLRLSCSASGFTFSGYGLSWVRQAPGKGLEWVAMISSGGSYTYYADSVKGRFAISRDNAKNTLFLQMDSLRPEDTGVYFCARHGDDPAWFAYWGQGTPVTVSS", "VL": "DIQLTQSPSSLSASVGDRVTITCSVSSSISSNNLHWYQQKPGKAPKPWIYGTSNLASGVPSRFSGSGSGTDYTFTISSLQPEDIATYYCQQWSSYPYMYTFGQGTKVEIKR"}, "B2": {"name": "14E4 Fab (Fab, V domains shown)", "VH": "not shown", "VL": "EIVLTQSPGTLSLSPGERATLSCRASQSVSSSYLAWYQQKPGQAPRLLIYGASSRATGIPDRFSGSGSGTDSTLTISRLEPEDFAVYYCQQPTSSPITFGQGTKVEIK"}, "B3": {"name": "19E5 Fab (Fab, V domains shown)", "VH": "QVQLVQSGAEVKKPGASVKVSCKASGYTFTSYYMHWVRQAPGQGLEWMGIINPSGGSTSYAQKFQGRVTMTRDTSTSTVYMELSSLRSEDTAVYYCARGEWRRYTSFDYWGQGTLVTVSS", "VL": "QAVVTQEPSLTVSPGGTVTLTCGSSTGAVTTSNYANWVQEKPGQAFRGLIGGTNKRAPGTPARFSGSLLGGKAALTLSGAQPEDEAEYYCALWYSNLWVFGGGTKLTVL"}},
  "key": {"[1]": {"molecular_target": "T1, human FolR1 ECD-AcTev-Fcknob-Avi tag + Fc hole, biotinylated monomeric Fc fusion (human, UniProt P0DOX5 223-449 = IgG part)", "T1 construct": "also called huFolR1; huFolR1-Fc", "test": "SPR, apparent KD, bivalent binding (avidity)"}, "[2]": {"molecular_target": "T1, human FolR1 ECD-AcTev-Fcknob-Avi tag + …", "test": "SPR, monovalent, antibody captured by anti-Fab"}, "[3]": {"molecular_target": "T2, murine FolR1 ECD-AcTev-Fcknob-Avitag + Fc hole, biotinylated monomeric Fc fusion (murine, UniProt P0DOX5 223-449 = IgG part)", "T2 construct": "also called muFolR1; murine FolR1-Fc", "test": "SPR ProteOn, Fab analyte"}, "[4]": {"molecular_target": "T2, murine FolR1 ECD-AcTev-Fcknob-Avitag + …", "test": "SPR ProteOn, Fab analyte", "remark": "listed apart in the source"}, "[5]": {"molecular_target": "T1, human FolR1 ECD-AcTev-Fcknob-Avi tag + …", "test": "SPR ProteOn, Fab analyte"}},
  "note": "Where two headings read alike, the source gives them in different places.",
  "data": [
    {"binder": "B1", "values": [
      {"measurement": "Kd", "setting": "[1]", "result": 0.73, "unit": "nM"},
      {"measurement": "Kd", "setting": "[2]", "result": 55.3, "unit": "nM"}
    ]},
    {"binder": "B2", "values": [
      {"measurement": "Kd", "setting": "[3]", "result": 6.09, "unit": "nM"}
    ]},
    {"binder": "B3", "values": [
      {"measurement": "Kd", "setting": "[4]", "result": 19.4, "unit": "nM"},
      {"measurement": "Kd", "setting": "[5]", "result": 522, "unit": "nM"}
    ]}
  ]
}
